{"source": "patent US20250179193A1", "about": "“TREATMENT WITH AN ANTIBODY THAT BINDS EGFR AND CMET” (MERUS N.V., priority 2022, published 2025)", "key": {"[1]": {"system": "MKN-45 (EGFR-low, cMET-amplified)", "assay": "ADCC assay (Promega ADCC Bioassay kit), MKN-45 target cells", "format": "cell-based", "settings": "10 μg/ml to 1 ng/ml, 6 hours", "protocol": "(§1) The ADCC activity of the 24 cMet×EGFR bispecifics was tested to the tumor cell lines N87 (EGFR-high, cMET-low) and MKN-45 (EGFR-low, cMET-amplified). The ADCC assay was performed using the Promega ADCC Bioassay kit in 384-well plate format. Antibodies were tested in duplicate at 9 different concentrations in semi-log serial dilutions ranging from 10 μg/ml to 1 ng/ml.\n(§2) Antibodies or assay medium control (no IgG) were incubated for 6 hours of induction at 37° C. with ADCC effector cells, and target cells (N87 or MKN-45). Luciferase activity was quantified using Bio-Glo luciferase reagent."}, "[2]": {"system": "N87 (EGFR-high, cMET-low)", "assay": "ADCC assay (Promega ADCC Bioassay kit), N87 target cells", "format": "cell-based", "settings": "10 μg/ml to 1 ng/ml, 6 hours", "protocol": "as §1, §2"}}}
{"substance": "cetuximab: reference antibody for the EGFR Fab panel; positive control in ADCC assay", "values": [{"measurement": "ADCC activity", "setting": "[1]", "result": "dose-dependent ADCC activity"}, {"measurement": "ADCC activity", "setting": "[2]", "result": "dose-dependent ADCC activity"}]}
